Literature values, collected in US20030083321A1, “Composition and method for minimizing or avoiding adverse effects of vesicants” (published 2003).

Chains of the proteins cited; added tags and fusions are not shown. Residues count along the entry.
UniProt P78536, 215-824 limits assumed: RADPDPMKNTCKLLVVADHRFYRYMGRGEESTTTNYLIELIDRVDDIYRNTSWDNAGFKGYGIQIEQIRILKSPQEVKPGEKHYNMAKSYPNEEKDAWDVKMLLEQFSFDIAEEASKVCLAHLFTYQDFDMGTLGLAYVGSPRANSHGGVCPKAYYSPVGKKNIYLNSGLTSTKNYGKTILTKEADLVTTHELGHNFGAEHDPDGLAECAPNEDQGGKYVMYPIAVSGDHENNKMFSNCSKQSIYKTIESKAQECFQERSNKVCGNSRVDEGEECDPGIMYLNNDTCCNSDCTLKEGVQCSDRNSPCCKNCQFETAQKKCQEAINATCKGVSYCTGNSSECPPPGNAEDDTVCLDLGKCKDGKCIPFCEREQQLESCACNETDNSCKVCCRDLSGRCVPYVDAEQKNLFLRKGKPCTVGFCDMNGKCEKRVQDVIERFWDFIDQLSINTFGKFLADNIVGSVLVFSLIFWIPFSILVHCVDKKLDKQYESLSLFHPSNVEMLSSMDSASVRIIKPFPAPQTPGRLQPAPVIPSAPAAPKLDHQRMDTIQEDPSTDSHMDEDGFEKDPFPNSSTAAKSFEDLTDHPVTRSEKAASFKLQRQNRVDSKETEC

What was measured:
[1] = test system: protease which can be stimulated by exposure of NHEK cells to mustard in the presence of calcium ions; details: for inhibition of mustard-stimulated protease: NHEK cells; for inhibition of proteolytic activity: 1 mM concentration
[2] = target: TNF-alpha converting enzyme (Homo sapiens, UniProt P78536)

Question: For `C[C@@H]1C[C@@H]([C@H](O)CC2CC(=O)NC(=O)C2)C(=O)[C@@H](C)C1`, which “inhibition of mustard-stimulated protease” value ([1]; 35 µM in the extracellular medium) is on record?
Answer: completely inhibited

Question: For EGTA, which “inhibition of mustard-stimulated protease” value ([1]; 2 mM in the extracellular medium) is on record?
Answer: completely inhibited

Question: For `CC(=O)N[C@@H](CC(C)C)C(=O)N[C@@H](CC(C)C)C(=O)N[C@H](C=O)CCCNC(=N)N`, which “inhibition of proteolytic activity” value [1] is on record?
Answer: inhibited

Question: For `CC(C)CC(=O)N[C@H](C(=O)N[C@H](C(=O)N[C@@H](CC(C)C)[C@@H](O)CC(=O)N[C@@H](C)C(=O)N[C@@H](CC(C)C)[C@@H](O)CC(=O)O)C(C)C)C(C)C`, which “inhibition of proteolytic activity” value [1] is on record?
Answer: not inhibited

Question: With `CNC(=O)[C@H](Cc1c[nH]c2ccccc12)NC(=O)[C@@H](CC(=O)NO)CC(C)C` as the compound, how does the “inhibition of TNF-alpha converting enzyme, preventing release of soluble TNF-alpha” value [2] read?
Answer: ability to inhibit the TNF-alpha converting enzyme

Where two headings read alike, the source gives them in different places.
